The values that follow come from patent publication US9546153B2, “Bicyclic heterocycle substituted pyridyl compounds useful as kinase modulators” (BRISTOL-MYERS SQUIBB COMPANY, priority 2012, dated 2017).

Chains of the proteins cited; added tags and fusions are not shown.
UniProt Q9NWZ3, whole entry: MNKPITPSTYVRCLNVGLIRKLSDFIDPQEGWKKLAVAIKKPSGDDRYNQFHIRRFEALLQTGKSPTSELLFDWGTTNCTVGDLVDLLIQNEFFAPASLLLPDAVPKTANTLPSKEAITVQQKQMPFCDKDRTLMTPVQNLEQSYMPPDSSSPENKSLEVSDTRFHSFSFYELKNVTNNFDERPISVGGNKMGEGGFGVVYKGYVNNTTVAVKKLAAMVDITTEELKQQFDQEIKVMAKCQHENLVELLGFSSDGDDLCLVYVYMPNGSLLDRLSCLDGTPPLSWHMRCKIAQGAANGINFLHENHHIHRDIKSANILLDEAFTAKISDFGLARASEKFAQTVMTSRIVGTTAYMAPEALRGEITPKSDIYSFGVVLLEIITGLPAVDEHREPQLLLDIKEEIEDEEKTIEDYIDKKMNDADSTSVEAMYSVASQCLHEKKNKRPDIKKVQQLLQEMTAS

For one assay, the target named is IRAK4 (Homo sapiens (Human), UniProt Q9NWZ3). Kind of assay: IRAK4 Inhibition Assay. Type of assay: biochemical. The note with it: read-out: IRAK4 IC50; ATP 500 μM; IRAK4 0.6 nM; 60 min at room temperature.
For assay [1], the system named is TLR2 induced IL-6 in peripheral blood mononuclear cells (PBMCs). Kind of assay: PBMC TLR2 Induced IL-6 Assay. Type of assay: cell-based. The note with it: human PBMCs, 10 μg/ml lipoteichoic acid for 5 hours, IL-6 by ELISA; for IC50: read-out: Cell IC50, value without asterisk.

By IC50 is commonly meant the midpoint of a concentration-inhibition curve. As to `O=C(NCCC1CCN(Cc2ccccc2)CC1)c1cnc(Nc2ccc3ncsc3c2)cc1NC1CCCC1`, the IC50 on IRAK4 was determined as 6.3 nM; in assay [1], 492 nM. What is called EC50 is the concentration needed to bring the measured effect to its halfway point. For `O=C(N[C@H]1CC[C@H](O)CC1)c1cnc(Nc2nc3scnc3cc2F)cc1NC1CC1`, in assay [1] (read-out: Cell EC50 (asterisk), EC50 determinations are indicated with an asterisk), the EC50 stood at 539 nM. On to `CC(C)(O)[C@H](F)CNC(=O)c1cnc(Nc2ccc3ncsc3c2)cc1NC12CC3CC(CC(N)(C3)C1)C2`, for which the IC50 was 5.7 nM on IRAK4 and 156 nM in assay [1].
